{"source": "patent US20240165261A1", "about": "“MEANS AND METHOD FOR CYTOSOLIC DELIVERY” (Universiteit Gent, priority 2021, published 2024)", "tested_on": "human T cells"}
{"substance": "dextran methacrylate (MA)-co-TMAEMA nanogels [Dex-NG DS 5.9]", "values": [{"measurement": "cell viability", "value": "> 50", "unit": "%"}]}
